Results on one compound are retold here after patent US7655756B2 (Johnson & Johnson Pharmaceutical Research & Development, LLC, priority 2005, dated 2010).

By UniProt entry, the sequences of proteins in these tests, tags left out.
UniProt Q92731, whole entry, species assumed: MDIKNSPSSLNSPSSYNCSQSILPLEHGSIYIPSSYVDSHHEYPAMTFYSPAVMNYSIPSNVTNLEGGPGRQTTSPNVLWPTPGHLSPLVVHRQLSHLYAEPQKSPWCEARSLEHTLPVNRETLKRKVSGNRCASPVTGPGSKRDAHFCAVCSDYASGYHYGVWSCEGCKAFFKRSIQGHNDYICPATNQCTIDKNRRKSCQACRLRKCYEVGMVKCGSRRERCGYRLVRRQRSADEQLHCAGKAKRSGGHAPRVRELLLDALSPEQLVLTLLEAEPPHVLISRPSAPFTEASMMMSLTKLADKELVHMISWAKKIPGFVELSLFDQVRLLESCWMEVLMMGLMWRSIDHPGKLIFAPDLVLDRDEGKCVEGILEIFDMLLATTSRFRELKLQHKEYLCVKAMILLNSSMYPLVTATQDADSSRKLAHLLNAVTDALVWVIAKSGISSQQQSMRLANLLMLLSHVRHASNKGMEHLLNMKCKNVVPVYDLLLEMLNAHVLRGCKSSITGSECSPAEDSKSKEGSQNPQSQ

The experiment has as its target ERβ (Homo sapiens, UniProt Q92731). The experiment can be described thus: ThermoFluor thermal shift assay, ERβ. It is filed as binding. The settings on record: pH 8, read-out: ΔTm, thermal stabilization of ERβ. (In general: In DSF a fluorescence change marks the thermal transition of the protein.)

Regarding `CC/C(=C(/CC)c1ccc(O)cc1)c1ccc(O)cc1` [DES, di-ethylstilbestrol], the ΔTm (commonly the change in melting temperature against a reference sample) at 100 µM was found to be 18.9 °C.
